Data taken from US9603820B2, “Ornithine aminotransferase inhibition with GABA analogues for treatment of hepatocellular carcinoma” (Northwestern University, priority 2014, dated 2017).

What was measured:
[1] = target: T1, ornithine aminotransferase (OAT) (Homo sapiens, UniProt P04181); test: Time-dependent inactivation of OAT and dialysis of the inactivated enzyme; format: biochemical
T1 sequence (P04181 36-439 limits assumed): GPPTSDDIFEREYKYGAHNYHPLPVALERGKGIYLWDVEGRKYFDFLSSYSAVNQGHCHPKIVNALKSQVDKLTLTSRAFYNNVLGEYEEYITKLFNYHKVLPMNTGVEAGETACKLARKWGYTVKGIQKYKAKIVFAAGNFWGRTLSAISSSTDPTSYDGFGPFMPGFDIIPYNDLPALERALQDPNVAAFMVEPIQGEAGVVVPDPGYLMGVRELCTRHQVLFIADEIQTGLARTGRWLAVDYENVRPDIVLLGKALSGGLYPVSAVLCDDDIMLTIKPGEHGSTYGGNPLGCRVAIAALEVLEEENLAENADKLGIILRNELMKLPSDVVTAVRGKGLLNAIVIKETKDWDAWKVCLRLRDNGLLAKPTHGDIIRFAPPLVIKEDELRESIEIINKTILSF
Method: OAT activity assays were carried out using as follows. OAT (0.25 μg) is incubated with various concentrations of gabaculine (0.1 μM, 1 μM, 5 μM, 10 μM) or CPP-115 (10 μM, 25 μM, 50 μM, 100 μM, 200 μM) in 100 mM potassium pyrophosphate buffer, pH 8.0, containing 1 mM alpha-ketoglutarate in a total volume of 20 μL at room temperature. At time intervals, 80 μL of assay solution containing PYCR1 (0.5 μg), 12.5 mM alpha-ketoglutarate, 1 mM NADH, 0.03 mM PLP, and 25 mM L-ornithine in 100 mM potassium pyrophosphate buffer, pH 8.0, are added to the incubation mixture and assayed for OAT activity.
OAT (30 μg) is pre-incubated for 24 h with 2 mM CPP-115 in 100 mM pyrophosphate buffer (pH 8.0) containing 5 mM alpha-ketoglutarate in a total volume of 60 μL at room temperature. OAT incubated without the inactivator serves as a control. […]
For the determination of KI and kinact values, the natural logarithm of the percentage of remaining OAT activity is plotted against the pre-incubation time at each inhibitor concentration to obtain the kobs (slope) value for each concentration. […] The initial rate constants for the inactivation at various concentrations of the two compounds are determined using nonlinear regression analysis.

[2] = target: T2, OAT (Homo sapiens, UniProt P04181); settings: prior art, FIG. 1; cited from earlier work
T2 sequence (P04181 36-439 limits assumed): T1 sequence (P04181 36-439 limits assumed)

Gabaculine
OAT inactivation, time and concentration dependence [1]: time- and concentration-dependent | efficiency/potency as time-dependent irreversible inhibitor (inactivator) of OAT ([1]; no activity returned upon dialysis for 48 h): most potent inactivator | inactivation/inhibition of OAT (known compounds) [2]: also inactivate OAT with equal potency
